Experimental data from patent publication US20100255020A1, “METHOD FOR INDUCING CYTOTOXIC T-CELLS, CYTOTOXIC T-CELL INDUCERS, AND PHARMACEUTICAL COMPOSITIONS AND VACCINES EMPLOYING THEM” (NEC CORPORATION, priority 2007, published 2010).

Test system: peptide-loaded target cells (C1R-A24, RA24, T2)
Test: 51Cr release assay of PBMC killing activity against peptide-loaded target cells
Type: cell-based, human
Conditions: HLA-A*0201 binding peptides, T2 targets
Method: As a next experiment, PBMCs from patients with malignant tumors were stimulated with peptide in vitro and their cytolytic activity was examined against peptide-loaded tatrget cells by ^51Cr release assay described later.
Target cells were labeled with ^51Cr and loaded with HLA-binding peptide of interest. 5,000 or 10,000 cells/well of target cells were placed in 96-well U-bottom plate, and then, PBMCs having been stimulated twice in vitro were added thereto as a responder. Cells were incubated at 37° C. for 5 hours and ^51Cr released from the damaged cells during the incubation was measured, and % specific lysis was calculated. As target cells C1R-A24 or RA24 cells were used as a target when reactivity to HLA-A*2402 binding peptides were examined, and T2 cells were used as a target and incubation was carried out for 2 hours after addition of responder cells. Percent specific lysis was calculated as follows. % specific lysis=(test release-spontaneous release)/(total release-spontaneous release)×100.

RMFPNAPYL (listed as Homo sapiens) [Db126, reference compound]
Peptide-reactive cytolytic cells in PBMCs of patients: contain cytolytic cells that recognize
